{"sequences": {"note": "By UniProt entry, the sequences of proteins in these tests, tags left out.", "UniProt P18825, whole entry": "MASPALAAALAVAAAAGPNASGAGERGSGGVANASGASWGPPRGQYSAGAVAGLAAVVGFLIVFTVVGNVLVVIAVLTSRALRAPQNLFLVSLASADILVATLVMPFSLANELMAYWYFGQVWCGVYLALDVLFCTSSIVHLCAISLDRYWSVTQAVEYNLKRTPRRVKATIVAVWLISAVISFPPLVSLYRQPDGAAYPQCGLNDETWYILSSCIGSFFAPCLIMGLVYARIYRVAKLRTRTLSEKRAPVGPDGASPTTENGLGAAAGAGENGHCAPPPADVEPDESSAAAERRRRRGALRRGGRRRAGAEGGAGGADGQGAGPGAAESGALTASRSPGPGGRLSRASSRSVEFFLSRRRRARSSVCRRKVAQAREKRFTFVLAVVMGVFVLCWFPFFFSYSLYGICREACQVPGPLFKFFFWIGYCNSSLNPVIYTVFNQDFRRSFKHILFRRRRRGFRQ", "UniProt P08913, whole entry": "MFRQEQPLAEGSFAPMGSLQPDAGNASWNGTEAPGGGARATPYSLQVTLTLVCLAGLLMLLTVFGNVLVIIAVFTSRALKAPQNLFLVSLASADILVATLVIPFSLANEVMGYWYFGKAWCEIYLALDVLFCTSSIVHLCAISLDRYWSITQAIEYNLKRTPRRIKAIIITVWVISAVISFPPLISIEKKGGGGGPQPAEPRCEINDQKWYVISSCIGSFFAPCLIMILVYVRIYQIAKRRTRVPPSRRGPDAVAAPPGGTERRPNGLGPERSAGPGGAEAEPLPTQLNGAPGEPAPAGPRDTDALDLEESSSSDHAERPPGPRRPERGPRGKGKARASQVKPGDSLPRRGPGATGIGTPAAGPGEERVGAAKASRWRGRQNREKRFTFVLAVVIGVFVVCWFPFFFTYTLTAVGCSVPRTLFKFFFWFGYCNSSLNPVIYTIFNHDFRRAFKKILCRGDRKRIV", "UniProt P31645, whole entry": "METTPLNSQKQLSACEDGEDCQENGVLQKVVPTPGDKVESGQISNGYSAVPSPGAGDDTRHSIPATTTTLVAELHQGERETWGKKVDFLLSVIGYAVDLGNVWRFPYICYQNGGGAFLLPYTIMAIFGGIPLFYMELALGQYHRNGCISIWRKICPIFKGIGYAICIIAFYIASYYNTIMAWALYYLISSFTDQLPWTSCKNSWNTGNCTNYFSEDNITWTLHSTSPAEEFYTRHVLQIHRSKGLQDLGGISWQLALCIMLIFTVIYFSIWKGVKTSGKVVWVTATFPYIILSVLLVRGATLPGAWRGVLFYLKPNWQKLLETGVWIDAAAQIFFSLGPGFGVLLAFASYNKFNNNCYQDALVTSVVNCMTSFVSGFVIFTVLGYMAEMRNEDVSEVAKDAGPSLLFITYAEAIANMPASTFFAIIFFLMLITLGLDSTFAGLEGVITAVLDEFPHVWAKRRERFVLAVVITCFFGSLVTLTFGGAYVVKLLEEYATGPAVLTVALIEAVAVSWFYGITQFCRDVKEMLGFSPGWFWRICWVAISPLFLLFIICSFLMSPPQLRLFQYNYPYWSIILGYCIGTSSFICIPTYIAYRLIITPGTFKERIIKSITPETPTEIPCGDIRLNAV", "UniProt P18089, whole entry": "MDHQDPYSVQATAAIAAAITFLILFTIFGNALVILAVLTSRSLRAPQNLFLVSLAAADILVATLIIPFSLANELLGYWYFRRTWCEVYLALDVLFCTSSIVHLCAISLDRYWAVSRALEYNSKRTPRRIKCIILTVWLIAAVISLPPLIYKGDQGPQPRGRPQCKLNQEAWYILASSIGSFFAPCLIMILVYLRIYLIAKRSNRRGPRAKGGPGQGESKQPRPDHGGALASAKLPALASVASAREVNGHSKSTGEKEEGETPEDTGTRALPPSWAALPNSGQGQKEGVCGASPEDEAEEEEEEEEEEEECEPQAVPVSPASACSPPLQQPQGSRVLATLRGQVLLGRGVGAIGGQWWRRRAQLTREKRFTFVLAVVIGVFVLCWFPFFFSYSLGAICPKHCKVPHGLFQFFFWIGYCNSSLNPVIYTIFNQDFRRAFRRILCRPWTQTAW"}, "source": "patent US7501418B2", "about": "“Fused heterocyclic isoxazoline derivatives and their use as anti-depressants” (Janssen Pharmaceutica, N.V., priority 2002, dated 2009)", "key": {"[1]": {"molecular_target": "hα2C receptor (Homo sapiens, UniProt P18825)", "assay": "Radioligand binding experiment for α2C-adrenergic receptor ([3H]-raulwolscine)", "settings": "CHO cell membranes with human α2C receptor, [3H]raulwolscine 1 nM"}, "[2]": {"molecular_target": "hα2A receptor (Homo sapiens, UniProt P08913)", "assay": "Radioligand binding experiment for α2A-adrenergic receptor ([3H]-raulwolscine)", "settings": "CHO cell membranes with human α2A receptor, [3H]raulwolscine 1 nM"}, "[3]": {"molecular_target": "h5-HT transporter (Homo sapiens, UniProt P31645)", "assay": "Radioligand binding experiment for 5-HT transporter ([3H]paroxetine)", "settings": "human platelet membranes, [3H]paroxetine 0.5 nM"}, "[4]": {"molecular_target": "hα2B receptor (Homo sapiens, UniProt P18089)", "assay": "Radioligand binding experiment for α2B-adrenergic receptor ([3H]-raulwolscine)", "settings": "CHO cell membranes with human α2B receptor, [3H]raulwolscine 1 nM", "procedure": "In general, a low concentration of a radioligand with a high binding affinity for a particular receptor or transporter is incubated with a sample of a tissue preparation enriched in a particular receptor or transporter or with a preparation of cells expressing cloned human receptors in a buffered medium. During the incubation, the radioligand binds to the receptor or transporter. When equilibrium of binding is reached, the receptor bound radioactivity is separated from the non-bound radioactivity, and the receptor- or transporter-bound activity is counted. The interaction of the test compounds with the receptor is assessed in competition binding experiments. Various concentrations of the test compound are added to the incubation mixture containing the receptor- or transporter preparation and the radioligand. The test compound in proportion to its binding affinity and its concentration inhibits binding of the radioligand. […] Filter-bound radioactivity was determined by scintillation counting in a Topcount (Packard, Meriden, Conn.) and results were expressed as counts per minute (cpm). Non-specific binding was determined in the presence of 1 μM oxymetazoline for hα2A- and hα2B receptors and 1 μM spiroxatrine for hα2C receptors. Data from assays in the presence of compound were calculated as a percentage of total binding measured in the absence of test compound. […]"}, "[5]": {"settings": "tested form: ethanedioate (oxalate) 1:2"}}}
{"compound": "C/C(=C\\CN1CCN(CC2ON=C3c4ncccc4OCC32)CC1)c1ccccc1", "note": "(centres unmarked)", "values": [{"measurement": "hα2C (pIC50)", "setting": "[1]", "value": 7.8}, {"measurement": "hα2A (pIC50)", "setting": "[2]", "value": 8.7}, {"measurement": "5-HTT (pIC50)", "setting": "[3]", "value": 6.2}]}
{"compound": "c1cnc2c(c1)OCC1C2=NOC1CN1CCN(Cc2ccc3ccccc3c2)CC1", "note": "(centres unmarked)", "values": [{"measurement": "hα2C (pIC50)", "setting": "[1]", "value": 7.3}, {"measurement": "hα2A (pIC50)", "setting": "[2]", "value": 8.1}, {"measurement": "5-HTT (pIC50)", "setting": "[3]", "value": 7.4}]}
{"compound": "COCCOCn1ccc2cc3c(cc21)OCC1C3=NOC1CN1CCN(C/C(C)=C/c2ccccc2)CC1", "note": "(centres unmarked)", "values": [{"measurement": "hα2C (pIC50)", "setting": "[1]", "value": 9.1}, {"measurement": "hα2A (pIC50)", "setting": "[2]", "value": 8.1}, {"measurement": "5-HTT (pIC50)", "setting": "[3]", "value": 8.7}, {"measurement": "hα2B (pIC50)", "setting": "[4]", "value": 8.1}]}
{"compound": "C/C(=C\\c1ccccc1)CN1CCN(CC2ON=C3c4ncccc4OCC32)CC1", "note": "(centres unmarked)", "values": [{"measurement": "hα2C (pIC50)", "setting": "[1]; [5]", "value": 8.4}, {"measurement": "hα2A (pIC50)", "setting": "[2]; [5]", "value": 8.9}, {"measurement": "5-HTT (pIC50)", "setting": "[3]; [5]", "value": 6.7}]}
{"compound": "CCn1ccc2cc3c(cc21)OCC1C3=NOC1CN1CCN(C/C(C)=C/c2ccccc2)CC1", "note": "(centres unmarked)", "values": [{"measurement": "hα2C (pIC50)", "setting": "[1]", "value": 8.6}, {"measurement": "hα2A (pIC50)", "setting": "[2]", "value": 7.9}, {"measurement": "5-HTT (pIC50)", "setting": "[3]", "value": 8.3}, {"measurement": "hα2B (pIC50)", "setting": "[4]", "value": 8.4}]}
